The text below walks through data of PubChem BioAssay AID743287 (Broad Institute, 2014).

The entries are a selection whose mix differs from that of the whole data set. Some of these compounds have results that are not shown, active ones among them. Active and inactive are the calls of the source.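 The calls were made as follows: active = lowest replicate activation of at least 40%, so every replicate reaches that level; inactive = the rest.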

A short description of the test: primary screen for activators of insulin secretion dependent on glucose, INS-1E cells, GLuc reporter luminescence (AID 743287).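 Also: 0% = median of neutral control wells and 100% = median of IBMX positive control wells.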 The note with it: INS-1E GLuc reporter insulin secretion, 2-3 h, at 16.6 µM, stronger effect = higher value.
For `Cc1ccc(C(=O)NCC2(N3CCCCC3)CCCCC2)cc1`, the activation was inactive: -6.59%.

In the case of `COc1cc(SC)ccc1C(=O)NCC1(N(C)C)CCCCC1`, the activation was inactive: 14.5%.

Regarding `CCN(CC)CC(C)C(C)OC(=O)C(O)(c1ccccc1)c1ccccc1` (configuration not stated), the activation was inactive: 16.3%.

As for `CC(C)N1C(=O)CC2(CCN(CCOC(=O)C(O)(c3ccccc3)c3ccccc3)CC2)C1=O`, the activation was inactive: -6.17%.

With `CN1[C@@H]2CC[C@H]1CC(OC(=O)C(O)(c1ccccc1)c1ccccc1)C2` (some centres not stated), the activation is inactive: 8.12%.

Take `O=C(NCC1(N2CCCCC2)CCCCC1)c1cc([N+](=O)[O-])ccc1Cl`: the activation was inactive: -3.77%.

In the case of `COc1ccc(C(=O)NCC2(N(C)C)CCCCC2)cc1`, the activation is inactive: 0.66%.

On to `O=C(NCC1(N2CCCCC2)CCCCC1)c1cccc(Br)c1`, for which the activation was inactive: 9.96%.

With `Cc1cc(C(=O)NCC2(N3CCCCC3)CCCCC2)ccc1[N+](=O)[O-]`, the activation is inactive: 6.16%.

`CCN1CCCC(OC(=O)C2(O)c3ccccc3C=Cc3ccccc32)C1` (configuration not stated): the activation was inactive: -4.53%.

With `O=C(NCC1(N2CCCCC2)CCCCC1)c1cc(F)c(F)cc1Cl`, the activation was inactive: -6.62%.

`C=CCN1CCN(CCOC(=O)C(O)(c2ccccc2)c2ccccc2)CC1`: the activation was inactive: 1.43%.

`CN(C)c1ccc(C(=O)NCC2(N(C)C)CCCCC2)cc1`: the activation was inactive: 8.34%.

With `Cc1ccccc1C(=O)NCC1(N2CCCCC2)CCCCC1`, the activation is inactive: 23%.

With `O=C(NCC1(N2CCCCC2)CCCCC1)c1cccc(Cl)c1`, the activation is inactive: -8.53%.

As to `COc1ccc(Cl)cc1C(=O)NCC1(N(C)C)CCCCC1`, the activation is inactive: -21.9%.

In the case of `COc1cccc(C(=O)NCC2(N3CCCCC3)CCCCC2)c1`, the activation is inactive: 4.8%.

As for `COc1cc(C(=O)NCC2(N(C)C)CCCCC2)c([N+](=O)[O-])cc1OC`, the activation was inactive: -18.2%.

As for `CN(C)C1(CNC(=O)c2ccc(Br)cc2)CCCCC1`, the activation is inactive: 9.77%.

On to `O=C(OCCN1CCCC1)C(O)(c1ccccc1)c1ccccc1`, for which the activation was inactive: 0.87%.

Regarding `CC(C)Oc1ccc(C(=O)NCC2(N(C)C)CCCCC2)cc1`, the activation was inactive: -8.08%.

`COc1ccc(Br)c(C(=O)NCC2(N3CCCCC3)CCCCC2)c1`: the activation is inactive: -9.92%.
